Experimental findings from US20160019374A1, “METHODS FOR ESTABLISHING COMBINATIONS OF KINASE INHIBITORS FOR THE TREATMENT OF MEDICAL CONDITIONS” (SALGOMED, INC., priority 2014, published 2016) are described below.

The experiment has as its system A549 (lung adenocarcinoma). The experiment is described as follows: Kinase inhibitor screen, selectivity = IMR-90 to A549 viability ratio (ATPlite 1 Step). To be noted: secondary screen: drug at 1000 nM paired with PDK1/Akt1/Flt3 Dual Pathway Inhibitor at 125 nM; FIG. 4. (In general: In ATP-based viability assays light output follows the ATP content of the culture.)

Take `N#CCCc1ccc2c(c1)-c1[nH]c3ccc([N+](=O)[O-])cc3c1CC(=O)N2` [A12, Alsterpaullone, 2-Cyanoethyl]: the “selectivity S for the pair (IMR-90 to A549 viability ratio)” value is 6.14.
